Our source for the hetero-dimerization rate values is patent US20130178605A1.

This experiment concerns the target scFv(anti-HER2)-BT beta chain. In words: co-expression of three chains in HEK293-EBNA, protein-A purification, non-reducing SDS-PAGE scanning densitometry.

Substance “VH(anti-EGFR)-CH1-BT alpha chain with VL(anti-EGFR)-CK chain” yielded a hetero-dimerization rate of 49.5%.
